This is an account of results in patent US11389469B2, “Targeting NAD+ to treat chemotherapy and radiotherapy induced cognitive impairment, neuropathies and inactivity” (NewSouth Innovations Pty Ltd, priority 2015, dated 2022).

This assay relates to brain. The assay can be described thus: Molecular response to chemotherapy in the brain during NMN treatment. The format is in vivo. As to conditions: doxorubicin with NMN treatment, mice; prophetic example. The source says: In this prophetic example, we propose performing a detailed characterization of the molecular pathways through which NMN protects against CIPN and CICI. We will repeat doxorubicin with NMN treatment or in NMNAT1 and NMNAT3 transgenic mice as in Examples 3 and 5, and cull animals one week post doxorubicin to obtain tissues for the molecular analyses described below. For NMN treatment as listed in Hypothetical Example 3, we will use a strain of transgenic reporter mice, which allow non-invasive imaging of cellular senescence caused by toxins such as chemotherapy. We will in addition repeat doxorubicin treatment in NMNAT1 and NMNAT3 transgenic mice and their WT littermates as described in Example 5.
Mitochondrial function will be assessed in freshly isolated brain mitochondria, and activity of each complex of the electrode transport chain will be assessed in a dissolved oxygen Clarke-type electrode as previously described and as shown in FIG. 3. Substrates and inhibitors that are specific for each complex of the electron transport chain will be added, allowing calculation of activity of each complex.
Apoptosis will be measured through western blotting for cleaved caspase 3 and γH2AX. DNA damage and PARP activity will be assessed by western blotting for poly-ADP ribose (PAR). Immunohistochemical analysis of apoptosis will be assessed as described below. […]

As for Nicotinamide Mononucleotide [NMN], the “protection against chemotherapy induced loss of NAD+, impaired mitochondrial function, neuronal toxicity, cellular senescence, and apoptosis” value was “protect”.
